# Apparent affinities of Ab-14 variants for a coronavirus HR2 peptide

Binding partner: SARS-CoV-2 spike HR2 peptide, sequence PDVDLGDISGINAS.

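This is the validation round: designs drawn from the data on random variants, tested in the same kind of assay. Several design methods are mixed in this list. AlphaSeq pools MATa yeast showing the antibodies with MATalpha yeast showing the peptide. Mating (16 h, 30 °C) was followed by selection of diploids and sequencing of their barcodes. Scores were corrected for input abundance and mapped to Kd with protein pairs of known affinity run in the same pool. Mating was done six times.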

Ab-14 is the parent antibody, in scFv form: VH, then a 15-residue (Gly4Ser)3 linker, then VL. The heavy chain is unchanged in all variants.
VH: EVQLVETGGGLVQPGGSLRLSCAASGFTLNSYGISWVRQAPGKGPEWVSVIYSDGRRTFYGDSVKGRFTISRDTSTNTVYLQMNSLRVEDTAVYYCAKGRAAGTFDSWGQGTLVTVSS
VL: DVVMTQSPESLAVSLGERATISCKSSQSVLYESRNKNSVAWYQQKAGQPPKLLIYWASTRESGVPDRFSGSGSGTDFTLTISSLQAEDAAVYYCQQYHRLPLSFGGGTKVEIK

The parent's light chain CDRs are KSSQSVLYESRNKNSVA, WASTRES, QQYHRLPLS; each variant's own CDRs replace them letter for letter.
Numbers give log10(Kd / nM), so 0 is 1 nM and 3 is 1 µM. Smaller is tighter.
The mean shown is taken over the replicates in which the pair was detected.
A pair that was not seen in any replicate is written "nd"; this usually means weak binding, but a binder can also be missed.

The variant QFSNTNMQGNAMWANVA / EATYAEE / QQYARLPLQ showed nd (0 of 6 replicates).
The variant QLEFYDVQGTAKWHAIA / EGSQLGQ / QQYFHLPLG showed 0.80 (2 of 6 replicates).
The variant MMSQVTGMESKHRNNVA / QTSTREP / QQYDRLPLI showed 1.45 (4 of 6 replicates).
The variant QLPNYRPDGYLQKNNVA / EGTERSH / QQYMRLPLF showed 0.40 (6 of 6 replicates).
The variant KMPQSNLYESRNKNSVA / NASTRES / QQYHRLPLS showed 0.97 (6 of 6 replicates).
The variant KLSMQYRYETEEKNSIA / ELVTRMS / QQYHRLPLS showed 0.09 (3 of 6 replicates).
The variant KVEQGVDDESRNDNSVA / WASTRES / QQYHRLPLS showed 1.12 (6 of 6 replicates).
The variant KSSQSVLYESRFKNSVA / SASTRES / QQYHRLPLS showed 1.16 (6 of 6 replicates).
The variant KLSQSHLYESRMKNAVA / NASTRES / QQYHRLPLS showed -0.29 (6 of 6 replicates).
The variant TISGVMTQMSHSKNNVA / EVSMRLD / QQYFRLPLE showed 0.97 (6 of 6 replicates).
The variant KLSATYRYESQNKNSIA / EMTTRGS / QCYHRLPLS showed 2.11 (6 of 6 replicates).
The variant KLSMMYQHTSRQKNNIA / ERSTREE / QQYHHLPLS showed 1.12 (6 of 6 replicates).
The variant KSSQSMLYESSNKNSVA / WASVRES / QQYHRLPLS showed 1.41 (6 of 6 replicates).
The variant KLQQSVLYESRNPNSVA / NASTRES / QQYHRLPLS showed -0.59 (6 of 6 replicates).
The variant KVSQSFLYESRNKNAVA / GASTRES / QQYHRLWLS showed 0.10 (6 of 6 replicates).
The variant SLSESEREMDSHEQNIA / DGTEHMR / QQYFQLPLH showed 1.85 (6 of 6 replicates).
The variant KISPSVVYEERNSNSVA / WASTQES / QQYHRLPLS showed 2.11 (1 of 6 replicates).
The variant KVSSSVLYDSRNKNSVA / WASTREY / QQYHRLPLL showed 0.86 (6 of 6 replicates).

Continued, with the values leading:

0.22 (6 of 6 replicates) for SLYDATAMESRNKNPIA / DVSTRPS / QQYHRLPLS.
0.74 (6 of 6 replicates) for KLYERGEISSKVDRSIA / EMSTRCE / QSYQRLPLS.
0.25 (6 of 6 replicates) for KLSQVTNSEHKLKNSIA / EMVTREK / QQYDRLPLS.
0.06 (6 of 6 replicates) for KSSQSVLYESVNKNSVA / SASTRES / QQYHRLPLS.
-0.25 (6 of 6 replicates) for KLSQSVLYEDRNKNSVA / NASQREQ / QQYHRLPLS.
1.04 (6 of 6 replicates) for KMDQGALYESRNKNSVA / GASTRES / QQYHRLPLS.
-0.18 (6 of 6 replicates) for KLSQSVLYESRNKNSVA / NASTREH / QQYHRLPLS.
0.77 (6 of 6 replicates) for KQSFMVMEGSRNKNSVA / EASLREW / QQYHRLPLS.
0.69 (5 of 6 replicates) for TISGVMQQMSHSKSNVA / EVSTRLD / QQYVRLPLE.
0.14 (6 of 6 replicates) for KSSISYLYESENKNSVA / SASQRES / QQYHRLPLS.
-0.25 (6 of 6 replicates) for KSSQSWLYESRNFWSVA / NASTRES / QQYHRLPLS.
nd (0 of 6 replicates) for KHSQSVQYESRNHNSVA / WASTRES / QQDHRLPLS.
nd (0 of 6 replicates) for KSSQSVLFESRNKNSVA / WASTRES / QQYNSLPLS.
-0.06 (6 of 6 replicates) for NLQNGGSELSVWKRNIA / DANIRES / QQYFRLPLL.
0.15 (6 of 6 replicates) for KLSGSWLYESRNKNAVA / NASTRES / QQYHRLPLS.
1.25 (6 of 6 replicates) for KVSQSYLYESRNKNSVA / WASTRES / QAYHRLPLS.
0.26 (6 of 6 replicates) for KISMSYRYESQEKNSIA / EMTTREE / QSYHRLPLS.
-0.40 (6 of 6 replicates) for KFSQSVLYESRNKNSVA / NASTREE / QQYHRLPLS.

The opening 3 entries, copied out:

The variant QFSNTNMQGNAMWANVA / EATYAEE / QQYARLPLQ showed nd (0 of 6 replicates).
The variant QLEFYDVQGTAKWHAIA / EGSQLGQ / QQYFHLPLG showed 0.80 (2 of 6 replicates).
The variant MMSQVTGMESKHRNNVA / QTSTREP / QQYDRLPLI showed 1.45 (4 of 6 replicates).

Empty control strains, which show no peptide, gave a signal in 4% of pairings with all light chain designs; the median was 2.64 and 95% of these signals were weaker than 1.59. No background was subtracted.
The authors averaged sequences with at least three values out of six and counted those with two or fewer as poor binders.
A sequence measured in both rounds can read differently, since the two assays cover different ranges.

Reference: Li et al. 2023, doi:10.1038/s41467-023-39022-2. File: FLAb, binding data.